Measured values from ChEMBL document CHEMBL1133595, “Discovery of chiral N,N-disubstituted trifluoro-3-amino-2-propanols as potent inhibitors of cholesteryl ester transfer protein” (J Med Chem, 2000).

Molecular target: T1, Cholesteryl ester transfer protein (Homo sapiens, UniProt P11597)
T1 sequence (P11597 whole entry): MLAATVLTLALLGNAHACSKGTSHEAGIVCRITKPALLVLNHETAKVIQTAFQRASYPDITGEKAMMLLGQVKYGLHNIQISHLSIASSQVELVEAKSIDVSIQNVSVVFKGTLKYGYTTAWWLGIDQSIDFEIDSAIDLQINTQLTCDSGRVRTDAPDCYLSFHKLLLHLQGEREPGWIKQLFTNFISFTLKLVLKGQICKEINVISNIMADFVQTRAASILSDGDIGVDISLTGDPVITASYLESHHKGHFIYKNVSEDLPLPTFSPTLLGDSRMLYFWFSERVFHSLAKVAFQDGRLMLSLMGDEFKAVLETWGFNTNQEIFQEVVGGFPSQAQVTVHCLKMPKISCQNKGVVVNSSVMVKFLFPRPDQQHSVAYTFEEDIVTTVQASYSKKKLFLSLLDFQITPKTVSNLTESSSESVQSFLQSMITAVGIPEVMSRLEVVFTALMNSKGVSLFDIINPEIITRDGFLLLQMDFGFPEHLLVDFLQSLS
Assay: Tested for inhibiting CETP-mediated transfer of [3H]-CE from HDL to LDL in vitro under buffered assay conditions in human serum.
Type: cell-free

SMILES: OC(CN(Cc1cccc(OC(F)(F)C(F)F)c1)c1cccc(Oc2ccccc2)c1)C(F)(F)F (configuration not stated)
- IC50: 6 µM

SMILES: O[C@H](CN(Cc1cccc(OC(F)(F)C(F)F)c1)c1cccc(Oc2ccccc2)c1)C(F)(F)F
- IC50: 0.6 µM
